Tests used:
[1] = organism: Homo sapiens; test: Selectivity ratio of Ki for delta opioid receptor (unknown origin) to Ki for kappa opioid receptor (unknown origin)
[2] = target: Kappa-type opioid receptor (Homo sapiens, UniProt P41145); test: Displacement of [3H]U69593 from kappa opioid receptor (unknown origin)
How it was run: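 Competition radioligand binding. Ki was determined against [3H]DAMGO for MOR, [3H]DADLE for DOR and […] for KOR. Values are the mean of three experiments, each run in duplicate.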

Chains of the proteins cited; added tags and fusions are not shown. Lines headed by an entry give the natural chain unless they say otherwise; changes in a name come on top.
UniProt P41145: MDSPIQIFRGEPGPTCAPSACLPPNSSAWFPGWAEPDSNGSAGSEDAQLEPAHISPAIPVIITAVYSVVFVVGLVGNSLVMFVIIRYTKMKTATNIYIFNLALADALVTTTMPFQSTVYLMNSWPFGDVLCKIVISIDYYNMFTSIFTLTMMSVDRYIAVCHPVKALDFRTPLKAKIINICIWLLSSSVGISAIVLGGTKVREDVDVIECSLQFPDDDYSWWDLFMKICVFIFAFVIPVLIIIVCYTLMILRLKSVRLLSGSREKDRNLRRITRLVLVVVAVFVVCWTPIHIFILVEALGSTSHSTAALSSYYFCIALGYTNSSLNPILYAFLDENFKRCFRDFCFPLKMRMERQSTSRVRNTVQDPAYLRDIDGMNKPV

Row | Structure (SMILES) | Ratio Ki [1] | Ki [2] [µM]
1 | COC(=O)[C@@H]1C[C@H](OC(=O)CCC(=O)O)C(=O)[C@H]2[C@@]1(C)CC[C@H]1C(=O)O[C@H](c3ccoc3)C[C@]21C | > 2 | 
2 | COC(=O)[C@@H]1C[C@H](O)C(=O)[C@H]2[C@@]1(C)CC[C@H]1C(=O)O[C@H](c3ccoc3)C[C@]21C [SALVINORIN B] |  | > 10

Source: ChEMBL document CHEMBL2380279 (Bioorg Med Chem Lett, 2013)
